# Test results as given in patent US4610816A (Schering Corporation, priority 1981, dated 1986).
# By UniProt entry, the sequences of proteins in these tests, tags left out.
# UniProt P07861, whole entry: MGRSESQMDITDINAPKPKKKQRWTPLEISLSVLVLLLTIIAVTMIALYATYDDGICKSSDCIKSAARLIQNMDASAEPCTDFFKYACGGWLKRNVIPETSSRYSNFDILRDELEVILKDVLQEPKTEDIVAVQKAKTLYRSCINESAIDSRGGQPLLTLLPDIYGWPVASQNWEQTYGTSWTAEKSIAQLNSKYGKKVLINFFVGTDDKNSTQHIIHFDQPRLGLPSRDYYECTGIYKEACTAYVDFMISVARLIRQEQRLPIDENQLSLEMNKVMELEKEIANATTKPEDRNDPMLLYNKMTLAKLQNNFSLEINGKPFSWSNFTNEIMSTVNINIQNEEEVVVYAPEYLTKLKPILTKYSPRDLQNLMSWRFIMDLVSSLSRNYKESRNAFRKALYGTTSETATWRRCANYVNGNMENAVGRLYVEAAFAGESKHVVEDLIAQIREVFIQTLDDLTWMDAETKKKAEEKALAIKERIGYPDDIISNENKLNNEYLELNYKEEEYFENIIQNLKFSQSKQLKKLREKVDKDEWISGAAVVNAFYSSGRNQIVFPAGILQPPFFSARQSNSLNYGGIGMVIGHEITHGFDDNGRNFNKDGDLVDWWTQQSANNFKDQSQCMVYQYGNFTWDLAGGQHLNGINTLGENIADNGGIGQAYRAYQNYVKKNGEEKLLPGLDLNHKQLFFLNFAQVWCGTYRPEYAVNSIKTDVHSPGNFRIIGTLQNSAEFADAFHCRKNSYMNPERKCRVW
# System: Male CFl mice
# Assay: Potentiation of the analgesic effects of (DAla2-Met5)-enkephalinamide (DAEAM), tail-flick test
# Settings: icv; footnote 2: value is ED100; mouse tail-flick
row,Compound,DAEAM Potentiation ED100 (route) [µg]
1,O=C(O)CCNC(=O)[C@H](Cc1ccc(-c2ccccc2)cc1)N[C@@H](Cc1ccccc1)C(=O)O [AD],50
2,O=C(O)C(CNC(=O)[C@H](Cc1ccccc1)N[C@@H](Cc1ccccc1)C(=O)O)Cc1ccccc1 (stereo partly shown),50

# Same assay, conditions: icv; mouse tail-flick, DAEAM icv, latency 30 min later
row,Compound,DAEAM Potentiation ED50 (route) [µg]
1,CC(CNC(=O)[C@H](Cc1ccccc1)N[C@@H](Cc1ccccc1)C(=O)O)C(=O)O (stereo partly shown),50

# Same assay, conditions: po; mouse tail-flick, DAEAM icv, latency 30 min later; dose at which half the test animals displayed analgesia
row,Compound,DAEAM Potentiation ED50 (route) [mg/k]
1,CC(C)(C)C(=O)OCOC(=O)[C@H](Cc1ccccc1)N[C@@H](Cc1ccccc1)C(=O)NCCC(=O)OCc1ccccc1,100
2,Cc1ccccc1NC(=O)[C@H](Cc1ccccc1)N[C@@H](Cc1ccccc1)C(=O)NCCC(=O)OCOC(=O)C(C)(C)C,100
3,CC(CNC(=O)[C@H](Cc1ccccc1)N[C@@H](Cc1ccccc1)C(=O)OCc1ccccc1)C(=O)OCOC(=O)C(C)(C)C (stereo partly shown),100
4,CCOC(=O)CCNC(=O)[C@H](Cc1ccccc1)N[C@@H](Cc1ccccc1)C(=O)OCOC(=O)C(C)(C)C,100

# Same assay, conditions: sc; footnote 2: value is ED100; mouse tail-flick
row,Compound,DAEAM Potentiation ED100 (route) [mg/k]
1,CC(C)(C)C(=O)OCOC(=O)CCNC(=O)[C@H](Cc1ccccc1)N[C@@H](Cc1ccccc1)C(=O)O,100

# Same assay, conditions: sc; mouse tail-flick, DAEAM icv, latency 30 min later; dose at which half the test animals displayed analgesia
row,Compound,DAEAM Potentiation ED50 (route) [mg/k]
1,Cc1ccc(C[C@H](N[C@@H](Cc2ccccc2)C(=O)NCCC(=O)O)C(=O)O)cc1 [AB],10

# Target: enkephalinase A (Rattus norvegicus, UniProt P07861)
# Assay: Enkephalinase A inhibition, radiometric 3H-Met5-ENK degradation assay with TLC separation
# Assay type: biochemical, Sprague-Dawley rats
# Settings: read-out: Enkephalinase A Inhibition IC50; rat brain membrane enzyme, 40 nM 3H-Met5-ENK, 90 min at 37° C.; N.A. = No activity at <10^5 nM
row,IC50 [nM],Compound
1,140,CC(C)C[C@H](N[C@@H](Cc1ccccc1)C(=O)O)C(=O)N[C@@H](Cc1ccccc1)C(=O)O
2,5,O=C(O)CCNC(=O)[C@H](Cc1ccccc1)N[C@@H](Cc1cccc2ccccc12)C(=O)O
3,46,O=C(O)CCNC(=O)[C@H](Cc1ccc2ccccc2c1)N[C@@H](Cc1ccccc1)C(=O)O
4,90,C[C@H](NC(=O)[C@H](Cc1ccccc1)N[C@@H](CCc1ccccc1)C(=O)O)C(=O)O
5,29,Cc1ccc(C[C@H](N[C@@H](Cc2ccccc2)C(=O)NCCC(=O)O)C(=O)O)cc1 [AB]
6,16,O=C(O)CCNC(=O)[C@H](Cc1ccccc1)N[C@@H](Cc1ccc2ccccc2c1)C(=O)O
7,6.4,CC(CNC(=O)[C@H](Cc1ccccc1)N[C@@H](Cc1ccccc1)C(=O)O)C(=O)O (stereo partly shown)
8,22,O=C(O)CCNC(=O)[C@H](Cc1ccccc1)N[C@@H](Cc1ccc(Cl)cc1)C(=O)O
9,220,C[C@H](NC(=O)[C@H](Cc1ccccc1)N[C@@H](CCCCNC(=O)OCc1ccccc1)C(=O)O)C(=O)O
10,52,CO[C@H](CNC(=O)[C@H](Cc1ccccc1)N[C@@H](Cc1ccccc1)C(=O)O)C(=O)O
11,55,O=C(O)CCCNC(=O)[C@H](Cc1ccccc1)N[C@@H](Cc1ccccc1)C(=O)O
12,30,C[C@H](NC(=O)[C@H](Cc1cccc2ccccc12)N[C@@H](CCc1ccccc1)C(=O)O)C(=O)O
13,140,C[C@H](NC(=O)[C@H](Cc1ccsc1)N[C@@H](CCc1ccccc1)C(=O)O)C(=O)O
14,170,C[C@H](NC(=O)[C@H](Cc1ccccc1)N[C@@H](CSCc1ccccc1)C(=O)O)C(=O)O
15,580,CC(C)(C)C(=O)OCOC(=O)CCNC(=O)[C@H](Cc1ccccc1)N[C@@H](Cc1ccccc1)C(=O)O
16,17,CO[C@@H](CNC(=O)[C@H](Cc1ccccc1)N[C@@H](Cc1ccccc1)C(=O)O)C(=O)O
17,6.3,O=C(O)C(CNC(=O)[C@H](Cc1ccccc1)N[C@@H](Cc1ccccc1)C(=O)O)Cc1ccccc1 (stereo partly shown)
18,90,O=C(O)CCNC(=O)[C@H](Cc1cccc2ccccc12)N[C@@H](Cc1ccccc1)C(=O)O
19,1340,CC(C)[C@H](N[C@@H](Cc1ccccc1)C(=O)N[C@@H](C)C(=O)O)C(=O)O
